scFv variants of Ab-95 (light chain) against a SARS-CoV-2 spike peptide

Data: MIT Lincoln Laboratory AlphaSeq set, Engelhart et al. 2022, doi:10.1038/s41597-022-01779-4, as distributed in FLAb.

Antigen: PDVDLGDISGINAS, a 14-residue peptide of the SARS-CoV-2 spike HR2 region.

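Phage display of a naive human antibody library on the peptide gave the parent. Variants in AAYL52 differ from the parent at up to three CDR positions; double and triple changes were sampled at random. Affinity was read by AlphaSeq, a pooled yeast mating assay with surface-displayed partners. The frequency of each diploid, read from paired DNA barcodes, reflects how well the two displayed proteins bind. Read counts were normalised to the haploid input and turned into Kd by a linear fit to BCL2-family pairs of known affinity, for each replicate. The assay was run in three technical replicates.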

Parent: Ab-95, a human scFv built as VH, three GGGGS repeats, VL. Only the CDRs of the light chain vary.
VH: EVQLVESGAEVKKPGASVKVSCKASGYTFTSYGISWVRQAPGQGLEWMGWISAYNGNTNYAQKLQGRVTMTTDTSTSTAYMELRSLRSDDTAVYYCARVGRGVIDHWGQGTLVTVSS
VL: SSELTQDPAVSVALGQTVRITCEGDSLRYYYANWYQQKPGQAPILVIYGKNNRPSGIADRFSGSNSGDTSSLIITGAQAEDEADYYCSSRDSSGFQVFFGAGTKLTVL

Changes read parent residue, position, new residue, counted from the first residue of the VL shown. This list gathers variants with a substitution at V97 (VL, numbered from residue 1). Affinities are written as log10 Kd with Kd in nM; a lower number is a better binder. The mean shown is taken over the replicates in which the pair was detected. Where no diploid with the target was found in any replicate, the entry reads "no signal": below detection, most likely a poor binder, though not proof of it. Entries are sorted by rising average, undetected variants last. In this assay the parent's reference entry averaged 2.31; its copy inside this library read 2.25. Nonspecific signal, from three strains lacking the peptide, appeared in 28% of pairings of library AAYL52, centred on 3.91 (5% of these signals below 2.90); values are not corrected for it.

- E23H/Y30Q/V97M = 0.37 (3 of 3 replicates)
- Y30W/S89W/V97W = 1.99 (3 of 3 replicates)
- V97F = 2.00 (3 of 3 replicates)
- Y29H/N52S/V97Q = 2.09 (3 of 3 replicates)
- R28Y/N52E/V97H = 2.12 (3 of 3 replicates)
- E23H/V97D = 2.24 (3 of 3 replicates)
- Y29P/S89L/V97G = 2.31 (2 of 3 replicates)
- S55F/F95L/V97C = 2.50 (2 of 3 replicates)
- S55I/V97D = 2.50 (3 of 3 replicates)
- D91N/V97N = 2.75 (3 of 3 replicates)
- S89H/F95E/V97R = 2.77 (3 of 3 replicates)
- S26H/S88Q/V97N = 3.00 (3 of 3 replicates)
- N52Q/S93P/V97A = 3.14 (2 of 3 replicates)
- E23N/Y30R/V97F = 3.15 (3 of 3 replicates)
- S55R/V97Y = 3.27 (2 of 3 replicates)
- S92A/F95H/V97Y = 3.31 (2 of 3 replicates)
- L27F/N52Q/V97L = 3.36 (2 of 3 replicates)
- G49M/S55F/V97H = 3.54 (1 of 3 replicates)
- L27F/R28F/V97R = 3.69 (3 of 3 replicates)
- L27W/D91E/V97M = 3.84 (2 of 3 replicates)
- D25L/N33Y/V97G = 3.86 (3 of 3 replicates)
- R53N/S89Q/V97C = 4.06 (2 of 3 replicates)
- A32Y/G94H/V97G = 4.08 (1 of 3 replicates)
- D25C/R90S/V97R = 4.33 (3 of 3 replicates)
- N52R/S88W/V97L = 4.34 (1 of 3 replicates)
- D25Y/V97Q = 4.35 (1 of 3 replicates)
- K50V/S55V/V97N = 4.47 (3 of 3 replicates)
- A32P/V97T/F98E = 4.52 (2 of 3 replicates)
- N51F/V97D = 4.62 (3 of 3 replicates)
- Y30K/D91Q/V97G = 5.07 (2 of 3 replicates)
- G24E/Y31H/V97D = 5.49 (1 of 3 replicates)
- L27F/N33Q/V97P = 5.69 (1 of 3 replicates)
- D25C/D91A/V97T = 5.87 (1 of 3 replicates)
- N52W/F95T/V97L = no signal (0 of 3 replicates)
- N51I/R53Q/V97K = no signal (0 of 3 replicates)
- D25A/V97N/F98K = no signal (0 of 3 replicates)
- A32I/R53I/V97Y = no signal (0 of 3 replicates)
- Y29N/R90N/V97M = no signal (0 of 3 replicates)
- L27E/K50R/V97Y = no signal (0 of 3 replicates)
- R28W/Y29M/V97K = no signal (0 of 3 replicates)
- K50H/S89Y/V97N = no signal (0 of 3 replicates)
- G24V/L27H/V97Y = no signal (0 of 3 replicates)